{"source": "paper PMC6017415", "about": "“Carbamates as Potential Prodrugs and a New Warhead for HDAC Inhibition” (Molecules : A Journal of Synthetic Chemistry and Natural …, 2018)", "biological_target": "T1, recombinant human HDAC8 (Homo sapiens, UniProt Q9BY41)", "T1 construct": "made in house", "T1 sequence (Q9BY41 1-377)": "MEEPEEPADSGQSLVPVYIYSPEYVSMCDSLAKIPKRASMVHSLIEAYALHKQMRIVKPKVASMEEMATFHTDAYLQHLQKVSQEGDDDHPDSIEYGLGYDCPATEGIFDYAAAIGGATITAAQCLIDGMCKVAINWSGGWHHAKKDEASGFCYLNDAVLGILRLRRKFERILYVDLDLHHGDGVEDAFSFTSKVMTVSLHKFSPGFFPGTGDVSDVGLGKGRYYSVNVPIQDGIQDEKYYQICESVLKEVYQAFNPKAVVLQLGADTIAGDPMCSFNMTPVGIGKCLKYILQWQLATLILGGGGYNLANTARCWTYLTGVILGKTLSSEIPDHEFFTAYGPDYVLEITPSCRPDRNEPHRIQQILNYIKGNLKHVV", "assay": "HDAC8 in vitro inhibition assay (Fluor de Lys kit)", "format": "biochemical", "settings": "IC50 (µM) ± SE HDAC8, recombinant human HDAC8, Fluor de Lys-HDAC8 substrate 50 µM, 90 min 37 °C", "description": "In order to investigate a potential subtype selectivity among different HDAC classes, we first tested them against the recombinant histone deacetylases HDAC1 (class I) and HDAC6 (class llb). […] To further address this issue, we also tested the respective compounds against the class l histone deacetylase HDAC8 (also see Table 1).\nRecombinant human HDAC1 and 6 were purchased from BPS Biosciences (San Diego, CA, USA), and recombinant human HDAC8 was produced as described before. Inhibition tests of human HDAC1 and 6 were conducted using carboxybenzyl acetyllysine aminomethylcoumarin (ZMAL) as a substrate. […] For testing of HDAC8, the commercial Fluor de Lys drug discovery kit (BML-KI178) (Enzo Life Sciences, Lausen, Switzerland) was used according to the manufacturer’s instruction. Briefly, the test compound, Fluor de Lys-HDAC8 substrate (50 μM), and enzyme were incubated for 90 min at 37 °C with subsequent addition of 50 μL of Developer II (BML-KI176) (Enzo Life Sciences, Lausen, Switzerland) and further incubation for 45 min at 30 °C. In both assays, trichostatin A (2 μM) was used to stop the reaction. Fluorescence in both cases was measured in a plate reader (BMG Polarstar, BMG Labtech, Ortenberg, Germany) with excitation at λ = 390 nm and emission at λ = 460 nm.", "note": "Several values for one entry are separate records, joined by “and”; a condition that tells them apart may be missing. Identical values can stand only once."}
{"smiles": "O=C(CCCCCCC(=O)Nc1ccccc1)NO", "note": "[SAHA (1), N-hydroxy-N′-phenyloctanediamide, reference compound]", "values": [{"measurement": "IC50", "result": "5.7 µM and 5.74 µM"}]}
